Sequences of proteins named here, by UniProt entry; tags and fusion partners are left off. Residues count along the entry.
UniProt P22303, 32-614 limits assumed: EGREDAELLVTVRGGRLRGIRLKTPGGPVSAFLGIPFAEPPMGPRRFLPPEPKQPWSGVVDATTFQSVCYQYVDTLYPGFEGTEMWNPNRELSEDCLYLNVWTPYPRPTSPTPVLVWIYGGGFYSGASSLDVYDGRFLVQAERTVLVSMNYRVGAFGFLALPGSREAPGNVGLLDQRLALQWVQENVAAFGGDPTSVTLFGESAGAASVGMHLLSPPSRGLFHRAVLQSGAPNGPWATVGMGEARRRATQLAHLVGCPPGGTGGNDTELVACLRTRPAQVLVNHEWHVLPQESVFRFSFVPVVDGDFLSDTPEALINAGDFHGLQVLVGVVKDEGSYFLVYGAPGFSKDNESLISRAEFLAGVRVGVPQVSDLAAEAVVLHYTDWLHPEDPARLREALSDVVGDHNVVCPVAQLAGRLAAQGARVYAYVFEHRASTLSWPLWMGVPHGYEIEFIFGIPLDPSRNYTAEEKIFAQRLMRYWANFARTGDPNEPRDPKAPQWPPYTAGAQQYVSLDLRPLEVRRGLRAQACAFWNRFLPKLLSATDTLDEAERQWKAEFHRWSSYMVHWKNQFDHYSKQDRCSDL

In BindingDB's records for 31675511:

Target: Acetylcholinesterase (Homo sapiens, UniProt P22303)
Assay: Reactivation of POX-inhibited human recombinant AChE assessed as dissociation rate constant using ATC as substrate incubated for 60 mins followed by substrate addition by Ellman's method based spectrophotometry

Cc1cc(=O)n(C)c(=O)n1CCCCn1cnc(C(=O)NO)n1
Kd: 60.6 mM

Cc1cc(=O)n(C)c(=O)n1CCCCCn1cnc(C(=O)NO)n1
Kd: 5.5 mM
